Data reported in ChEMBL document CHEMBL1156956, “Triazines incorporating (R)-3-methylmorpholine are potent inhibitors of the mammalian target of rapamycin (mTOR) with selectivity over PI3Kalpha” (Bioorg Med Chem Lett, 2010).

Experiment: Selectivity ratio of IC50 for PI3Kalpha to IC50 for rat mTOR

Row | SMILES | Ratio IC50
1 | C[C@@H]1COCCN1c1nc(-c2ccc(NC(=O)Nc3cccnc3)cc2)nc(N2CCOC[C@H]2C)n1 | 3010
2 | C[C@@H]1COCCN1c1nc(-c2ccc(NC(=O)Nc3ccc(N4CCN(C)CC4)cc3)cc2)nc(C2CCOCC2)n1 | 572
3 | C[C@@H]1COCCN1c1nc(-c2ccc(NC(=O)Nc3ccc(C(=O)N4CCN(C)CC4)cc3)cc2)nc(N2CCOC[C@H]2C)n1 | 45
4 | C[C@@H]1COCCN1c1nc(-c2ccc(NC(=O)Nc3cccnc3)cc2)nc(N2C[C@@H]3C[C@H]2CO3)n1 | 525
5 | C[C@@H]1COCCN1c1nc(-c2ccc(NC(=O)Nc3ccc(N4CCC(N(C)C)CC4)cc3)cc2)nc(C2CCOCC2)n1 | 237
6 | C[C@@H]1COCCN1c1nc(-c2ccc(NC(=O)Nc3ccc(N4CCN(C)CC4)nc3)cc2)nc(N2CCOC[C@H]2C)n1 | 489
7 | C[C@@H]1COCCN1c1nc(-c2ccc(NC(=O)Nc3ccc(CN(C)C)cc3)cc2)nc(N2CCOC[C@H]2C)n1 | 204
8 | C[C@@H]1COCCN1c1nc(-c2ccc(NC(=O)Nc3ccc(N4CCN(C)CC4)cc3)cc2)nc(N2CCOC[C@H]2C)n1 | 300
9 | C[C@@H]1COCCN1c1nc(-c2ccc(NC(=O)Nc3ccc(N4CCNCC4)cc3)cc2)nc(C2CCOCC2)n1 | 340
